Assay results taken from patent US9963461B2, “Phillygenin ibuprofen ester, preparation method therefor, and application thereof” (priority 2014, dated 2018).

System: Vero cell
Assay: Cytotoxicity test on Vero cell (MTT)
Conditions: 72 hours

**Q.** For `NC(=O)c1ncn([C@@H]2O[C@H](CO)[C@@H](O)[C@H]2O)n1` [Ribavirin, ribavirin], which “maximal non-toxic concentration (TC0)” value is on record?
**A.** 0.065 g/L
